From patent US20210300908A1, “S1P1 AGONIST AND APPLICATION THEREOF” (SHIJIAZHUANG SAGACITY SRUG SEVELOPMENT CO., LTD., priority 2016, published 2021)

Amino acid sequences for entries named in this document (tags omitted).
UniProt P21453, whole entry: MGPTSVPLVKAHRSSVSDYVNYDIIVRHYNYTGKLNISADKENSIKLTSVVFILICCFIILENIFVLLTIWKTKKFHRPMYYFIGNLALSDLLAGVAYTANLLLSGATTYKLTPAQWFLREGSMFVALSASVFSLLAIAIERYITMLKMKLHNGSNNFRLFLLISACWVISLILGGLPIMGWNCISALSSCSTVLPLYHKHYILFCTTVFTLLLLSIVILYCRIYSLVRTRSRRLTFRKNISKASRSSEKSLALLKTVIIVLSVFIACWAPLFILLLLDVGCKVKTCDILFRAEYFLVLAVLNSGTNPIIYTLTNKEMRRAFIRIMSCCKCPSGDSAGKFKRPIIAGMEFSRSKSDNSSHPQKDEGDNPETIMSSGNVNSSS

Legend:
S1P1 receptor = S1P1 receptor (Homo sapiens, UniProt P21453); assay: S1P1 receptor agonistic activity (PathHunter cell strain, chemiluminescent signal detection); type: cell-based; settings: read-out: S1P1 receptor agonistic activity; PathHunter cells, agonist mode, 37° C. 90-180 minutes
Procedure: Test Method: […] Cell Processing i) Thaw the PathHunter cell strain according to the standard procedures. ii) Seed the cell in the 20 μL 384-microwell plate and incubate at 37° C. for an appropriate period. 2. Agonist i) For agonist testing, cells were incubated with the sample to be test to initiate a reaction; ii) The stock solution to be tested has been diluted 5 folds to be a buffer solution; iii) Inject the 5-fold diluted solution (5 μL) into the cells and incubate at 37° C. for 90-180 minutes. […] 3. Signal Detection i) Add 12.5 μL or 15 μL PathHunter detection reagent (50 vol. %) in one portion. Then, incubate at room temperature for 1 hour and generate the detection signal; ii) Use PerkinElmer Evision™ instrument to read the microwell plate to proceed with chemiluminescent signal detection. 4. Data Analysis i) Use CBIS data analysis system for the compound activity analysis. ii) Calculation formula: […]

[1] = Evaluation of compound pharmacokinetics in SD rats (intravenous injection and oral administration); type: in vivo, Sprague Dawley rats; settings: 3 mpk
Procedure: Aim of the experiments: To test pharmacokinetics of the compounds in SD rats. Experimental Materials: Sprague Dawley rats (male, 200-300 g, 7-9 weeks old, Shanghai Slack) Experimental Procedure: The rodent pharmacokinetic characteristics of the compounds after intravenous injection and oral administration were tested by the standard protocol. In the experiments, the transparent solution was prepared with the compounds to be test. The rats were administered single intravenous injection and oral administration. The solvent for intravenous injection and oral administration was aqueous hydroxypropyl β-cyclodextrin solution or normal saline solution with a certain concentration. Collect the blood samples within 24 hours and centrifuge at 3000 G for 15 minutes. Separate the supernatant to obtain the plasma samples. A volume of acetonitrile solution containing internal standard was added 4 times as the sample to precipitate the protein. The supernatant was obtained after centrifuge. An equal volume of water was added and then centrifuge again to collect the supernatant. The LC-MS/MS method was used to quantitatively analyze the blood drug concentration and the pharmacokinetic parameters such as peak concentration, peak time, clearance rate, half-life period, area under the curve of the drug concentration, and fraction of bioavailability, etc. were calculated.

| SMILES | EC50 (S1P1 receptor) | Clearance rate [1] | Drug concentration integral: AUC [1] | Fraction of bioavailability: F [1] | Half-life period: T1/2 [1] |
| --- | --- | --- | --- | --- | --- |
| CC(C)Oc1ccc(-c2nc(-c3cccc4c3CC3CC(=O)N(CC(=O)O)C43)no2)cc1C#N (stereo not shown) | < 10 nM |  |  |  |  |
| CC(C)Oc1ccc(-c2noc(-c3cccc4c3C[C@@H]3CC(=O)N(CCO)[C@H]43)n2)cc1C#N | < 10 nM |  |  |  |  |
| CC(C)Oc1ccc(-c2nc(-c3cccc4c3CC3CC(=O)N(CCO)C43)no2)cc1C#N (single isomer, unassigned) |  | 44.3 mL/min/kg | 1.114 µM·h | 42.8% | 1.48 h |
| CC(C)Oc1ccc(-c2nc(-c3cccc4c3C[C@@H]3CC(=O)N(CCO)[C@H]43)no2)cc1C#N (single isomer, unassigned) |  |  | 6.825 µM·h |  |  |
